Test results: patent US11168075B2, “Compounds and their use for reducing uric acid levels” (Acquist LLC, priority 2016, dated 2021)

Chains of the proteins cited; added tags and fusions are not shown. Lines headed by an entry give the natural chain unless they say otherwise; changes in a name come on top.
UniProt Q96S37: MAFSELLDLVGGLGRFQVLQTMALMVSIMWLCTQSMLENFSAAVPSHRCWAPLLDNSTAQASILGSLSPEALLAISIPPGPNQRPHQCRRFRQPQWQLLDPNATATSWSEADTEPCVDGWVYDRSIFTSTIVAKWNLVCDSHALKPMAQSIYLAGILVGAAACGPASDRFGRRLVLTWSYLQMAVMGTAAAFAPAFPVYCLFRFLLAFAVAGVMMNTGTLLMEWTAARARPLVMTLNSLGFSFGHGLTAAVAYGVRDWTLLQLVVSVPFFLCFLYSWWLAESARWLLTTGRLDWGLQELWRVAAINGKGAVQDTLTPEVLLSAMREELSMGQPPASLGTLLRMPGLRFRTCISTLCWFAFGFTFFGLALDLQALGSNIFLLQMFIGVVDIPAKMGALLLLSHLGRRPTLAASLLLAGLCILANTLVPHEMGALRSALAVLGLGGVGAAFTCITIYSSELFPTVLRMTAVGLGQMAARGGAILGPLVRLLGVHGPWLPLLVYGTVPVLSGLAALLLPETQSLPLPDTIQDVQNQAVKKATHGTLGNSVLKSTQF

How the values were obtained:
URAT1 (SLC22A12) [1] = target: T1, URAT1 (SLC22A12) (Homo sapiens (Human), UniProt Q96S37); experiment: cell-based
URAT1 (SLC22A12) [2] = target: T1, URAT1 (SLC22A12); conditions: statement in words

| SMILES | IC50 (URAT1 (SLC22A12) [1]) [µM] | bifunctional inhibition (URAT1 and xanthine oxidase) (URAT1 (SLC22A12) [2]) |
| --- | --- | --- |
| COc1nc(O)c(C(=O)Nc2ccc(-c3cnn[nH]3)cc2)c(=O)[nH]1 [Formula (IIb), N-(4-(3H-1,2,3-triazol-4-yl)phenyl)-4-hydroxy-2-methoxy-6-oxo-1,6-dihydropyrimidine-5-carboxamide] | 12.1 |  |
| CC(C)Sc1nc(O)c(C(=O)Nc2ccc(-c3c[nH]nn3)cc2)c(=O)[nH]1 [Formula (IId), N-(4-(1H-1,2,3-triazol-5-yl)phenyl)-4-hydroxy-2-(isopropylthio)-6-oxo-1,6-dihydropyrimidine-5-carboxamide] |  | particularly effective bifunctional inhibitor |
| N=C(Nc1ccc(-c2c[nH]nn2)cc1)c1c(O)[nH]c(=O)[nH]c1=O [Formula (Ia), N-(4-(1H-1,2,3-triazol-4-yl)phenyl)-6-hydroxy-2,4-dioxo-1,2,3,4-tetrahydropyrimidine-5-carboximidamide] | > 4.8 |  |
| O=c1[nH]c(O)c(/C(=N\O)Nc2ccc(-c3cnn[nH]3)cc2)c(=O)[nH]1 [Formula (Ic), (E)-N-(4-(1H-1,2,3-triazol-5-yl)phenyl)-N′-hydroxy-2,4,6-trioxohexahydro-pyrimidine-5-carboximidamide] | > 150 |  |
| Cn1c(O)c(C(=O)Nc2ccc(-c3c[nH]nn3)cc2)c(=O)n(C)c1=O [Formula (Ie), N-(4-(1H-1,2,3-triazol-4-yl)phenyl)-6-hydroxy-1,3-dimethyl-2,4-dioxo-1,2,3,4-tetrahydropyrimidine-5-carboxamide] | > 37.5 |  |
| Cn1c(O)c(C(=N)Nc2ccc(-c3cnn[nH]3)cc2)c(=O)n(C)c1=O [Formula (If), N-(4-(1H-1,2,3-triazol-5-yl)phenyl)-6-hydroxy-1,3-dimethyl-2,4-dioxo-1,2,3,4-tetrahydropyrimidine-5-carboximidamide] | > 9 |  |
| Cn1c(O)nc(O)c(C(=O)Nc2ccc(-c3c[nH]nn3)cc2)c1=O [Formula (Ig), N-(4-(1H-1,2,3-triazol-4-yl)phenyl)-2,4-dihydroxy-1-methyl-6-oxo-1,6-dihydropyrimidine-5-carboxamide] | > 150 |  |
| Cn1c(=O)[nH]c(O)c(C(=N)Nc2ccc(-c3cnn[nH]3)cc2)c1=O [Formula (Ih)] | > 18.8 |  |
| O=c1[nH]c(=O)c2c(Nc3ccc(-c4cnn[nH]4)cc3)noc2[nH]1 [Formula (VIa), 3-((4-(1H-1,2,3-triazol-5-yl)phenyl)amino)isoxazolo[5,4-d]pyrimidine-4,6(5H,7H)-dione] | > 37.5 |  |
| O=c1[nH]c(=O)c2c(Nc3ccc(-c4cnn[nH]4)cc3)n[nH]c2[nH]1 [Formula (VIb), 3-((4-(1H-1,2,3-triazol-5-yl)phenyl)amino)-1H-pyrazolo[3,4-d]pyrimidine-4,6(5H,7H)-dione] | > 27 |  |
